Yeast UUG start-1 = alters start codon recognition fidelity in yeast. S. cerevisiae UUG-firefly luciferase reporter, luminescence/redox ratio. 350,000 tested, 0.13% active. activity score, % at 18.7 µM. AID 602363;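 active means replicate mean at a twofold rise or more, about +100% in these data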;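 further: firefly luciferase made from a UUG start codon reports start codon fidelity; reporter light over untreated wells divided by growth signal over untreated wells; some hits fall short of that in this replicate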
LGR2 inh = Drosophila LGR2 receptor signaling inhibition; HEK293 LGR2, CRE-luciferase, bursicon-stimulated, 4 h; inhibition, % at 9.99 µM; actives 0.35% (n = 380,000);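 active = drop in luminescence signal, shown as inhibition above about 50% in the replicate tests, limit read from the data, passing the limit was not always enough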;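 also: agonist challenge used bursicon conditioned medium at about half maximal strength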
miR-122 sensor = inhibitors of miR-122 in Huh7 cells; Huh7 miR-122 Renilla luciferase sensor, 48 h; neutral wells = 0, positive control = 100; activation (reporter increase), % at 12.5 µM; actives 0.3% (n = 340,000); AID 602342;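 active = mean replicate activation score at least 90 and every replicate individually at or above 90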;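 also: higher luciferase means less miR-122 activity so hits act as miR-122 inhibitors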
PglD inh = inhibitors of Campylobacter jejuni PglD acetyltransferase | purified PglD enzyme, DTNB colorimetric CoA detection | AID 602405 | actives 0.098% (n = 360,000) | inhibition, % at 12.5 µM; in the data active = inhibition above about 16%, passing the limit was not always enough
F508del corr = correctors of CFTR F508del function in bronchial epithelial cells; CFBE cells, YFP halide quenching; stimulated with forskolin plus potentiator P3; % fluorescence drop versus neutral controls; activity (quench increase), % at 7.58 µM; actives 0.36% (n = 350,000); AID 720511;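 active = mean added fluorescence quench of at least 8% versus neutral control, with both replicates also reaching 8%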;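 also: cells transiently co-express mutant CFTR-F508del with the halide-sensitive YFP; corrector assay measuring rescue of mutant channel to the surface after 24 h compound exposure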
EWS-Fli inh = blocks EWS/Fli oncoprotein-driven transcription; actives 0.67% (n = 350,000); inhibition, % at 12.6 µM; A673 NR0B1-luciferase reporter, viability-normalised;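 active = mean inhibition of at least 50% after viability correction, with every replicate also passing that limit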;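 also: firefly luciferase signal divided by Alamar Blue viability fluorescence both relative to DMSO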
Yeast UUG start-2 = modulators of start codon recognition fidelity in yeast | 540 tested, under 10 active | shares compounds with Yeast UUG start-1 | activation, % at 38 µM | S. cerevisiae UUG-start firefly luciferase, luminescence, 4 h; 100% means double the DMSO signal;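 active = signal increase whose fitted curve reaches an absolute level of 40 at a concentration under 10 µM; inactive = activity opposite to the expected increase, or the rest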
Numbers without * were called inactive; i = inactive; . = not tested or not shown; [ ] = another dose, or the depositor's remark. Shown are actives, neighbours in structure and some others; about 1.3% of the full set was active somewhere.

1	CCCSc1nc(C)c(-c2csc(C(C#N)=C3CCCC3)n2)cc1C#N
2	COc1cccc(Oc2nc3ncn(Cc4ccccc4)c3c(=O)n2C)c1
3	COc1cccc(Cn2c(Oc3ccccc3)nc3c2c(=O)n(C)c(=O)n3C)c1
4	Cc1onc(-c2ccc(Cl)cc2)c1-c1ccnn1S(=O)(=O)c1cccc(C(F)(F)F)c1
5	O=C(C[C@@H]1CC[C@H](NS(=O)(=O)c2ccc(F)cc2)[C@@H](CO)O1)N1CCN(c2ccccc2)CC1
6	COC(=O)c1cn(NC(=O)Cc2cccc(OC)c2)c(=O)c2ccccc12

entry no. | 1 | 2 | 3 | 4 | 5 | 6
Yeast UUG start-1 | . | 113* | -12 | 187* | 3 | -8
LGR2 inh | 1 | . | . | 8 | -3 | -1
miR-122 sensor | . | 0 | -8 | -2 | . | -3
PglD inh | . | -4 | 1 | 4 | -1 | 3
F508del corr | . | . | . | 0 | -1 | -2
EWS-Fli inh | . | . | . | -21 | 7 | 3
Yeast UUG start-2 | . | 13 | . | 19 | . | .

7	COC(=O)c1cn(NC(=O)Cc2ccc(OC)c(OC)c2)c(=O)c2ccccc12
8	CC1CCCCC1NC(=O)/C(C#N)=C/c1ccccc1F (configuration not stated)
9	CSc1ccc(/C=C(\C#N)C(=O)NC2CCCCC2C)cc1 (configuration not stated)
10	O=c1[nH]c(/C=C\c2ccc(O)c(Cl)c2)nc(O)c1[N+](=O)[O-]
11	COc1ccc(-c2cnc3c(c2)C(=O)N([C@@H](C)CO)C[C@H](C)[C@@H](CN(C)C(=O)NC2CCCC2)O3)cc1
12	COc1ccccc1-c1cnc2c(c1)C(=O)N([C@@H](C)CO)C[C@H](C)[C@@H](CN(C)C(=O)c1cccnc1)O2

entry no. | 7 | 8 | 9 | 10 | 11 | 12
Yeast UUG start-1 | 479* | 222* | . | 167* | 140* | 172*
LGR2 inh | 1 | 38 | 20 | 9 | 5 | 11
miR-122 sensor | 2 | 1 | . | 0 | 2[16.7 µM] | -5[16.7 µM]
PglD inh | 4 | 0 | . | 0 | -2 | 0
F508del corr | 0 | . | . | 1 | 1 | -2
EWS-Fli inh | 1 | 14 | -8 | -10 | -10 | -6
Yeast UUG start-2 | -1 | -14 | . | 2 | i | i

13	COc1ccc(-c2cnc3c(c2)C(=O)N([C@@H](C)CO)C[C@H](C)[C@H](CN(C)C(=O)NC2CCCC2)O3)cc1
14	CCCNC(=O)N(C)C[C@@H]1Oc2ncc(-c3ccc(C(=O)N(C)C)cc3)cc2C(=O)N([C@@H](C)CO)C[C@H]1C
15	C[C@H](CO)N1C[C@H](C)[C@@H](CN(C)CC2CCOCC2)Oc2ncc(-c3cccc(F)c3)cc2C1=O
16	CCNC(=O)[C@H]1[C@H](CO)[C@H]2Cn3c(ccc(-c4ccc(F)cc4)c3=O)[C@H]2N1Cc1ccccc1F
17	O=S(=O)(Nc1cccc(-c2cn3cccnc3n2)c1)c1ccc(-c2ccccc2)cc1
18	Cc1csc(NC(=O)Cc2nn(C)c(=O)c3ccccc23)n1

entry no. | 13 | 14 | 15 | 16 | 17 | 18
Yeast UUG start-1 | 12 | 104* | 157* | . | 545* | -18
LGR2 inh | 4 | 8 | 5 | 24 | . | .
miR-122 sensor | 20[16.7 µM] | 1[16.7 µM] | -2[16.7 µM] | -9[16.7 µM] | 21 | -4
PglD inh | -2 | -4 | . | . | -7 | 1
F508del corr | -3 | -1 | 3 | -1 | . | .
EWS-Fli inh | -7 | 2 | -7 | 0 | . | .
Yeast UUG start-2 | . | i | i | . | 3 | -7

19	COc1cccc(OC)c1NC(=O)Cc1nn(C)c(=O)c2ccccc12
20	COc1ccccc1NC(=O)Cc1nn(C)c(=O)c2ccccc12
21	COc1ccccc1NC(=O)COc1ccc(-c2nn(C)c(=O)c3ccccc23)cc1
22	COCC(=O)N1C[C@H](C)[C@H](OC)CN(C)C(=O)c2ccc(NC(=O)c3ccccc3)cc2OC[C@@H]1C
23	O=C(NCC(=O)N1CCN(S(=O)(=O)c2cccs2)CC1)c1ccc(Cl)cc1
24	COCCNc1nnc(SCC(=O)c2ccc3c(c2)OCO3)s1

entry no. | 19 | 20 | 21 | 22 | 23 | 24
Yeast UUG start-1 | -10 | -19 | 1 | 8 | 9 | 474*
LGR2 inh | . | . | 2 | 3 | 20 | .
miR-122 sensor | 0 | . | 0 | -1[16.7 µM] | -8 | 1
PglD inh | -1 | 3 | -4 | 0 | 2 | 4
F508del corr | . | . | -1 | -1 | -1 | .
EWS-Fli inh | . | . | 9 | -11 | 4 | .
Yeast UUG start-2 | 5 | -1 | . | . | . | 1

25	CC(C)=C1C2CCC1C1C(=O)N(c3nccs3)C(=O)C21 (configuration not stated)
26	CC(=O)OC(C(=O)N1CCOCC1)c1c(F)cccc1F (configuration not stated)
27	CC1CN(Cc2c(O)ccc3c2oc(=O)c2ccccc23)CC(C)O1 (configuration not stated)
28	CC1CN(Cc2c(O)ccc3c(=O)c(-c4ccccc4)coc23)CC(C)O1 (configuration not stated)
29	CC(C)C#Cc1ccc2c(c1)O[C@@H](CN(C)Cc1cccnc1)[C@H](C)CN([C@@H](C)CO)S2(=O)=O
30	CC(C)C#Cc1ccc2c(c1)O[C@H](CN(C)Cc1cccnc1)[C@H](C)CN([C@@H](C)CO)S2(=O)=O

entry no. | 25 | 26 | 27 | 28 | 29 | 30
Yeast UUG start-1 | -3 | . | 156* | -2 | 72* | -6
LGR2 inh | . | 8 | -4 | 1 | 11 | 16
miR-122 sensor | 5 | . | -4 | 2 | 10[16.7 µM] | 28[16.7 µM]
PglD inh | 4 | . | 3 | 0 | 2 | 3
F508del corr | . | 3 | 0 | . | -1 | 4
EWS-Fli inh | -5 | -6 | -10 | -1 | 5 | 3
Yeast UUG start-2 | . | . | 15 | . | i | .

31	C[C@H]1CN([C@@H](C)CO)S(=O)(=O)c2ccc(C#CC3CCCC3)cc2O[C@H]1CN(C)Cc1cccnc1
32	CCN(CC)C(=O)C1=C(C)N(CCCN2CCCC2=O)C(=O)C(CC(=O)NCCc2ccccn2)C1 (configuration not stated)
33	CC1=C(C(=O)N(C)C)CC(CC(=O)NCCCN(C)C)C(=O)N1CCCN1CCCC1=O (configuration not stated)
34	CC1=C(C(=O)N(C)C)CC(CC(=O)NCCc2ccccn2)C(=O)N1CCCN1CCCC1=O (configuration not stated)
35	COc1cccc(C(=O)N2CCN(C(=O)c3cccc4ccccc34)CC2)c1OC
36	COc1ccc(CN2CCN(C(=O)c3cccc4ccccc34)CC2)c(OC)c1OC

entry no. | 31 | 32 | 33 | 34 | 35 | 36
Yeast UUG start-1 | 142* | -23 | 104* | 101* | -1 | 146*
LGR2 inh | 13 | 26 | -11 | -17 | 10 | -12
miR-122 sensor | -4[16.7 µM] | 2 | -4 | -5 | 0 | 3
PglD inh | 1 | -2 | 4 | 1 | -1 | 7
F508del corr | 4 | -1 | 2 | -3 | . | .
EWS-Fli inh | -11 | 0 | -6 | -1 | . | 6
Yeast UUG start-2 | i | . | 7 | -6 | . | -1

Another view of part of the listing above.
entry	Structure	Yeast UUG start-1	LGR2 inh	miR-122 sensor	PglD inh	F508del corr	EWS-Fli inh	Yeast UUG start-2
10	O=c1[nH]c(/C=C\c2ccc(O)c(Cl)c2)nc(O)c1[N+](=O)[O-]	167*	9	0	0	1	-10	2
11	COc1ccc(-c2cnc3c(c2)C(=O)N([C@@H](C)CO)C[C@H](C)[C@@H](CN(C)C(=O)NC2CCCC2)O3)cc1	140*	5	2[16.7 µM]	-2	1	-10	i

(more compounds)
37	COc1ccc(COn2nnc3ccc(S(=O)(=O)N4CCOCC4)cc32)cc1F
38	O=C(CN1c2ccccc2Sc2ccccc21)N/N=C/c1ccc(Cl)cc1Cl
39	O=C(CN1c2ccccc2Sc2ccccc21)N/N=C/c1ccc(Cl)cc1
40	O=C(NNC(=S)Nc1ccc(F)c(Cl)c1)C1CC1
41	COc1ccc(Cl)cc1NC(=O)CSc1nc2[nH]ncc2c(=O)[nH]1

entry no. | 37 | 38 | 39 | 40 | 41
Yeast UUG start-1 | -13 | -25 | 180* | . | 109*
LGR2 inh | -6 | 9 | 5 | -11 | -15
miR-122 sensor | -7 | 0 | -9 | . | 12
PglD inh | 4 | -11 | 10 | . | 0
F508del corr | 0 | -4 | -1 | -2 | .
EWS-Fli inh | 6 | -12 | 11 | 9 | 3
Yeast UUG start-2 | . | . | -7 | . | 4

Three compounds already listed, ordered by the value under PglD inh, falling:
No.	SMILES	Yeast UUG start-1	LGR2 inh	miR-122 sensor	PglD inh	F508del corr	Yeast UUG start-2
33	CC1=C(C(=O)N(C)C)CC(CC(=O)NCCCN(C)C)C(=O)N1CCCN1CCCC1=O (configuration not stated)	104*	-11	-4	4	2	7
8	CC1CCCCC1NC(=O)/C(C#N)=C/c1ccccc1F (configuration not stated)	222*	38	1	0	.	-14
5	O=C(C[C@@H]1CC[C@H](NS(=O)(=O)c2ccc(F)cc2)[C@@H](CO)O1)N1CCN(c2ccccc2)CC1	3	-3	.	-1	-1	.
